From article PMC12388980, “Development of AGT-7: An Innovative ^99mTc-Labeled Theranostic Platform for Glioblastoma Imaging and Therapy” (Pharmaceuticals, 2025)

Key:
[1] = Ex vivo biodistribution in normal CFW mice; conditions: for Biodistribution Blood / Biodistribution Bone / Biodistribution Brain / Biodistribution Heart / Biodistribution Intestine / Biodistribution Kidney / Biodistribution Liver / Biodistribution Lung / Biodistribution Muscle / Biodistribution Pancreas / Biodistribution Spleen / Biodistribution Stomach: i.v. tail vein
Method: For the ex vivo biodistribution studies, normal Carworth Farms White (CFW) mice of both genders were used. The mice were housed in individually ventilated cages (IVCs) under a constant temperature (22 ± 2 °C) and humidity (45–50%) and a 12 h light/dark cycle, with free access to food and water. The animals were obtained from the breeding facilities of the Institute of Biosciences and Applications, NCSR “Demokritos”. The experimental animal facility is registered according to Greek Presidential Decree 56/2013 (Reg. Number: EL 25 BIO 022), in accordance with European Directive 2010/63, which is harmonized with national legislation, on the protection of animals used for scientific purposes. All applicable national guidelines for the care and use of animals were followed. The study protocol was approved by the Department of Agriculture and Veterinary Service of the Prefecture of Athens (Protocol Number 634365/27-7-21). These studies have been further approved by our institutional ethics committee, and the procedures followed are in accordance with institutional guidelines. Intravenous injections were performed using insulin syringes BD Micro-Fine 1 mL (29G). The animals were euthanized in a chamber saturated with isofluorane vapors (isoflurane 1000 mg/g, Iso-Vet, Chanelle Pharma). The radioactivity of samples and syringes was measured using a dose calibrator (Capintec, Ramsey, NJ, USA), while a Cobra II automatic gamma counter (Canberra, Packard, Schwadorf, Austria), was used to measure the radioactivity of the samples from the ex vivo biodistribution studies.
The ex vivo behavior of the two radiolabeled complexes was evaluated in mixed-gender CFW mice, 6–8 weeks old, weighing 20–30 g. The radiotracers were intravenously injected via the tail vein (100 μL/~100 μCi). At 1 and 24 h post-administration, the animals were euthanized by isoflurane inhalation, and the major organs and tissues of interest (blood, liver, heart, kidneys, stomach, intestines, spleen, muscle, lung, bone, pancreas, and brain) were collected, weighed, and measured in an automatic gamma counter. For the calculation of the injected dose in each animal, a standard solution was prepared, while the radioactivity remaining in the tail was subtracted. The syringes containing the radiolabeled samples were measured before and after injection, to determine the precise dose administered to each mouse. All measurements were corrected for background and radioactive decay. All the distribution data were calculated as the percentage of injected dose per gram (%ID/g).

[2] = Lipophilicity, partition coefficient by shake-flask method (1-octanol/PBS); type: physicochemical; conditions: 1-octanol/PBS pH 7.4, three repeats
Method: Lipophilicity studies were performed for the radiotracer [^99mTc]Tc-AGT-7. […] The partition coefficients (P) were determined using the shake-flask method and are expressed as logP (Table 1).
The lipophilicity of the radiolabeled complexes was assessed by determining the partition coefficient (P) using the shake-flask method. Briefly, in a centrifuge tube, 1 mL of 1-octanol and 1 mL PBS (0.01 M, pH 7.4) was mixed with 1–2 μCi of each of the radiolabeled complexes. The samples were vortexed for 1 min, and the radioactivity of 200 μL aliquots from each phase was measured using a gamma counter. The partition coefficient was calculated according to the following equation:(1) P = counts/mL on the 1 − octanol phase/counts/mL on the PBS phase
The results were expressed as logP. The procedure was repeated three times.

Technetium-99m Tetrofosmin [[^99mTc]Tc-TF]
myocardial accumulation (heart uptake) [1]: > 20 % ID/g | Biodistribution Blood ([1]; 1 h post-injection): 0.74 %ID/g | Biodistribution Bone ([1]; 1 h post-injection): 2.22 %ID/g | Biodistribution Brain ([1]; 1 h post-injection): 0.17 %ID/g | Biodistribution Heart ([1]; 1 h post-injection): 21.20 %ID/g | Biodistribution Intestine ([1]; 1 h post-injection): 8.37 %ID/g | Biodistribution Kidney ([1]; 1 h post-injection): 32.94 %ID/g | Biodistribution Liver ([1]; 1 h post-injection): 10.20 %ID/g | Biodistribution Lung ([1]; 1 h post-injection): 1.36 %ID/g | Biodistribution Muscle ([1]; 1 h post-injection): 2.46 %ID/g | Biodistribution Pancreas ([1]; 1 h post-injection): 4.37 %ID/g | Biodistribution Spleen ([1]; 1 h post-injection): 1.39 %ID/g | Biodistribution Stomach ([1]; 1 h post-injection): 5.39 %ID/g | Biodistribution Blood ([1]; 24 h post-injection): 0.02 %ID/g | Biodistribution Bone ([1]; 24 h post-injection): 0.20 %ID/g | Biodistribution Brain ([1]; 24 h post-injection): 0.01 %ID/g | Biodistribution Heart ([1]; 24 h post-injection): 0.63 %ID/g | Biodistribution Intestine ([1]; 24 h post-injection): 0.23 %ID/g | Biodistribution Kidney ([1]; 24 h post-injection): 0.54 %ID/g | Biodistribution Liver ([1]; 24 h post-injection): 0.27 %ID/g | Biodistribution Lung ([1]; 24 h post-injection): 0.06 %ID/g | Biodistribution Muscle ([1]; 24 h post-injection): 0.50 %ID/g | Biodistribution Pancreas ([1]; 24 h post-injection): 0.35 %ID/g | Biodistribution Spleen ([1]; 24 h post-injection): 0.06 %ID/g | Biodistribution Stomach ([1]; 24 h post-injection): 0.11 %ID/g | LogP Experimental [2]: 2.41 ± 1.03
